Target: galectin-3 expression on the cell membranes of cancer cell lines (Homo sapiens, UniProt P17931)
Details: 0.1 uC/ml, 30 min incubation; cell pellet/medium radioactivity concentration

Chains of the proteins cited; added tags and fusions are not shown.
UniProt P17931, whole entry: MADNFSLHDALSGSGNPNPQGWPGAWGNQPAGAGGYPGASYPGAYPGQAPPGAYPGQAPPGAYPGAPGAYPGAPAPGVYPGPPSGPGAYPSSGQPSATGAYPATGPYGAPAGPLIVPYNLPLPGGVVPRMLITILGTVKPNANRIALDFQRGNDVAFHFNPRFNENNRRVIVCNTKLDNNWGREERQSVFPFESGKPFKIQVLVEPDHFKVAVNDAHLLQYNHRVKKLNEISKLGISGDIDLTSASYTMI

For `OCC1OC(SC2OC(CO)C(O)C(n3cc(-c4cccc([18F])c4)nn3)C2O)C(O)C(n2cc(-c3cccc(F)c3)nn2)C1O` [[^18F]FPTDG, 3-(3-[^18F]fluorophenyltriazolyl)-3-deoxy-3′-(3-fluorophenyltriazolyl)-3′-deoxy-1-thio-β-D-digalactopyranoside], the “level of binding (accumulation) of radiotracer in cancer cells vs galectin-3 expression on cellular membranes” value was “reflects the level of galectin-3 expression on the cell membranes”.
